Test results taken from ChEMBL document CHEMBL4196036, “Benzomorphan scaffold for opioid analgesics and pharmacological tools development: A comprehensive review” (Eur J Med Chem, 2018).

Amino acid sequences for entries named in this document (tags omitted). A change or cut given only in a name is not applied to a line headed by its entry.
UniProt P41145: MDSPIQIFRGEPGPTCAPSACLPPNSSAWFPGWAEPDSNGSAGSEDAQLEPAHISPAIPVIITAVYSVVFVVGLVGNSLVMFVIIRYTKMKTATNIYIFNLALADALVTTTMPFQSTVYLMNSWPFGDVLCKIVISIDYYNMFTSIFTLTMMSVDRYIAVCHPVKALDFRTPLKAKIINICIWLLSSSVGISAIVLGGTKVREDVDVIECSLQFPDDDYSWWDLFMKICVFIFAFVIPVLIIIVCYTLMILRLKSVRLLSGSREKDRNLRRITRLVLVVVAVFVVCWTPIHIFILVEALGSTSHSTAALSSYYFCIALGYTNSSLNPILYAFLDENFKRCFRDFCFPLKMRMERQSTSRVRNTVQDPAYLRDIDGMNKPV

Molecular target: Kappa-type opioid receptor (Homo sapiens, UniProt P41145)
Test: Agonist activity at human KOR expressed in CHO cell membranes assessed as stimulation of [35S]GTPgammaS binding after 60 mins by scintillation counting method
Format: functional, cell-based

In the case of `CC1C2Cc3ccc(C(N)=O)cc3C1(C)CCN2CC1CC1` (racemic), the EC50 is reported as 8.8 nM.
